This note sets out measurements from patent publication US20260382689A1, “METHODS OF PREVENTING AND/OR TREATING SIDE EFFECTS ASSOCIATED WITH ANTI-CANCER AGENTS USING NON-NATURALLY OCCURRING MELANOCORTIN ANALOGS WITH ANTI-GDF-15 ANTIBODIES” (published 2026).

By UniProt entry, the sequences of proteins in these tests, tags left out.
UniProt Q01726, whole entry: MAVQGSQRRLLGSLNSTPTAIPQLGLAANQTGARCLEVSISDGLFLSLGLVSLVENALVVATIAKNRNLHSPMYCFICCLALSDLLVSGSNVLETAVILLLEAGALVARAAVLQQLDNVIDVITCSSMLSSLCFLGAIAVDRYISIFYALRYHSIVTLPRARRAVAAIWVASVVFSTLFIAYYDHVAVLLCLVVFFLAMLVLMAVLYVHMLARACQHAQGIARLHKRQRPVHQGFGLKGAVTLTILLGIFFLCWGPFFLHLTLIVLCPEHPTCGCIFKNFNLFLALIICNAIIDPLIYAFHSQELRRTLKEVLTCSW
UniProt P33032, whole entry: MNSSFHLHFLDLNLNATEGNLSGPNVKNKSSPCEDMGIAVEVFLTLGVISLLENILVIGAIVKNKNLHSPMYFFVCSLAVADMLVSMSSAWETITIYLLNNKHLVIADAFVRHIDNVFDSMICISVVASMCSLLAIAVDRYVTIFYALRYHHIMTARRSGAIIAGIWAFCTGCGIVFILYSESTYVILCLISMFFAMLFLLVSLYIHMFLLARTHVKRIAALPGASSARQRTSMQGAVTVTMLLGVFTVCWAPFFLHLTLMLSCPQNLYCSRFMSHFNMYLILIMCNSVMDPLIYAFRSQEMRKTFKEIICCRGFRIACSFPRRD
UniProt P41968, whole entry: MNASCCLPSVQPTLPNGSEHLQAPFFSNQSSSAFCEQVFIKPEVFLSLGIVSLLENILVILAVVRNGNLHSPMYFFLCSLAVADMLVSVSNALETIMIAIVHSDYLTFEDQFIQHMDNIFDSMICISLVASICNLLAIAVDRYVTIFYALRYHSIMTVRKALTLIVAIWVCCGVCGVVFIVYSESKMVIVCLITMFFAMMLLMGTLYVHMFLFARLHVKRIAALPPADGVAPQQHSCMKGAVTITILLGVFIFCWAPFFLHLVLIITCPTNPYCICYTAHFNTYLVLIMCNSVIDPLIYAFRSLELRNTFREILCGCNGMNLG
UniProt P32245, whole entry: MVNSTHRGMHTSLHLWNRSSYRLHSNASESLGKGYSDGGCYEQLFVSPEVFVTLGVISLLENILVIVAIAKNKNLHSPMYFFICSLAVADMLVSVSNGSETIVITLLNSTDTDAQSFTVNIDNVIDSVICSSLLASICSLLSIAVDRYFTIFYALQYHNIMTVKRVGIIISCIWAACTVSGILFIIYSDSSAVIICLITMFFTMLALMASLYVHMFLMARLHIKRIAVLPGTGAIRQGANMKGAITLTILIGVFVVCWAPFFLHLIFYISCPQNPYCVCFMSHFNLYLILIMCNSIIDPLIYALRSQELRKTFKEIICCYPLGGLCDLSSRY

Experiment [1] addresses melanocortin 1 receptor (MC1R) (Homo sapiens, UniProt Q01726). Kind of experiment: cAMP accumulation assay (HTRF), agonist and/or antagonist activity at MC1R (Example 1, Table 11). The note with it: dose-response, cAMP. In general terms: Changes in cAMP serve as a functional read-out for many G protein-coupled receptors.
In experiment [2] the target is melanocortin 5 receptor (MC5R) (Homo sapiens, UniProt P33032). Kind of experiment: cAMP accumulation assay (HTRF), agonist and/or antagonist activity at MC5R (Example 1, Table 14). The note with it: dose-response against MC5R.
In experiment [3] the target is human melanocortin 3 receptor (MC3R) (Homo sapiens, UniProt P41968). Kind of experiment: cAMP accumulation assay (HTRF), antagonist and/or agonist activity at MC3R (Example 1, Table 12, FIGS. 1-4). As to conditions: MC3R, antagonist activity, dose-response, cAMP.
Experiment [4] concerns the target human melanocortin 4 receptor (MC4R) (Homo sapiens, UniProt P32245). Kind of experiment: cAMP accumulation assay (HTRF), antagonist and/or agonist activity at MC4R (Example 1, Table 13, FIGS. 5-8). As to conditions: Table 13; dose-response against MC4R; cAMP.

Usually EC50 stands for the concentration needed to bring the measured effect to its halfway point. A higher EC50 goes with a need for much substance. In the case of `CCCC[C@H](NC(C)=O)C(=O)N[C@@H]1C(=O)N2CCC[C@H]2C(=O)N[C@H](Cc2ccc3ccccc3c2)C(=O)N[C@@H](CCCNC(=N)N)C(=O)N[C@@H](Cc2c[nH]c3ccccc23)C(=O)N[C@H](C(=O)N[C@@H](C(=O)N2CCC[C@@H]2C(N)=O)C(C)C)C(C)(C)SSC1(C)C`, the EC50 in experiment [1] was found to be 33 nM; in experiment [2], 15 nM.
For the compound `CCCC[C@H](NC(C)=O)C(=O)N[C@@H](CCCC)C(=O)N[C@@H](CCCC)C(=O)N[C@H]1CC(=O)NCCCC[C@@H](C(=O)N[C@@H](C(=O)N2CCC[C@@H]2C(N)=O)C(C)C)NC(=O)[C@H](Cc2c[nH]c3ccccc23)NC(=O)[C@H](CCCNC(=N)N)NC(=O)[C@@H](Cc2ccc3ccccc3c2)NC(=O)[C@@H]2CCCN2C1=O`, the results for the 50% effective concentration (EC50) in experiment [1] and in experiment [2] were 73 nM and 0.14 nM, respectively.
The corresponding values for `CCCC[C@H](NC(C)=O)C(=O)N[C@H]1CCC(=O)NCCC[C@H](C(=O)N[C@@H](C(=O)N2CCC[C@@H]2C(N)=O)C(C)C)NC(=O)[C@H](Cc2c[nH]c3ccccc23)NC(=O)[C@H](CCCNC(=N)N)NC(=O)[C@@H](Cc2ccc3ccccc3c2)NC(=O)[C@@H]2CCCN2C1=O` are 510 nM and 11 nM.
The corresponding values for `CC(=O)N[C@H](C)C(=O)N[C@H]1CC(=O)NCCCC[C@@H](C(=O)N[C@@H](C(=O)N2CCC[C@@H]2C(N)=O)C(C)C)NC(=O)[C@H](Cc2c[nH]c3ccccc23)NC(=O)[C@H](CCCNC(=N)N)NC(=O)[C@@H](Cc2ccc3ccccc3c2)NC(=O)[C@@H]2CCCN2C1=O` are more than 1000 nM and 29 nM.
`CC(=O)N[C@H](Cc1ccc(O)cc1)C(=O)N[C@H]1CC(=O)NCCCC[C@@H](C(=O)N[C@@H](C(=O)N2CCC[C@@H]2C(N)=O)C(C)C)NC(=O)[C@H](Cc2c[nH]c3ccccc23)NC(=O)[C@H](CCCNC(=N)N)NC(=O)[C@@H](Cc2ccc3ccccc3c2)NC(=O)[C@@H]2CCCN2C1=O`: the results for the EC50 in experiment [1] and in experiment [2] were more than 1000 nM and 16 nM, respectively.
In the same order, the values of `CCCC[C@H](NC(C)=O)C(=O)N[C@H]1CC(=O)NCCCC[C@@H](C(=O)N[C@@H](C(=O)N2CCC[C@@H]2C(N)=O)C(C)C)NC(=O)[C@H](Cc2c[nH]c3ccccc23)NC(=O)[C@H](Cc2c[nH]cn2)NC(=O)[C@@H](Cc2ccc3ccccc3c2)NC(=O)[C@@H]2CCCN2C1=O` are 430 nM and 0.11 nM.
In the same order, the values of `CC(=O)N[C@H](CC(C)C)C(=O)N[C@H]1CC(=O)NCCCC[C@@H](C(=O)N[C@@H](C(=O)N2CCC[C@@H]2C(N)=O)C(C)C)NC(=O)[C@H](Cc2c[nH]c3ccccc23)NC(=O)[C@H](CCCNC(=N)N)NC(=O)[C@@H](Cc2ccc3ccccc3c2)NC(=O)[C@@H]2CCCN2C1=O` are 12 nM and 0.51 nM.
In the same order, the values of `CCCC[C@H](NC(C)=O)C(=O)N[C@H]1CC(=O)NCCCC[C@@H](C(=O)N[C@@H](C(=O)N2CCC[C@@H]2C(N)=O)C(C)C)NC(=O)[C@H](Cc2c[nH]c3ccccc23)NC(=O)[C@H](CCCCN)NC(=O)[C@@H](Cc2ccc3ccccc3c2)NC(=O)[C@@H]2CCCN2C1=O` are 140 nM and 10 nM.
As to `CCCC[C@H](NC(C)=O)C(=O)N[C@@H]1C(=O)N2CCC[C@H]2C(=O)N[C@H](Cc2ccc3ccccc3c2)C(=O)N[C@@H](CCCNC(=N)N)C(=O)N[C@@H](Cc2c[nH]c3ccccc23)C(=O)N[C@@H](C(=O)N[C@@H](C(=O)N2CCC[C@@H]2C(N)=O)C(C)C)C(C)(C)SSC1(C)C`, the concentration for a half-maximal effect (EC50) in experiment [1] and in experiment [2] was more than 1000 nM throughout.
As for `CCCC[C@H](NC(C)=O)C(=O)N[C@H]1CC(=O)NCCCC[C@@H](C(=O)N[C@@H](C(=O)N2CCC[C@@H]2C(N)=O)C(C)C)NC(=O)[C@H](Cc2c[nH]c3ccccc23)NC(=O)[C@H](CCC(=O)O)NC(=O)[C@@H](Cc2ccc3ccccc3c2)NC(=O)[C@@H]2CCCN2C1=O`, in experiment [2], the EC50 was more than 1000 nM.
In experiment [2], `CCCC[C@H](NC(C)=O)C(=O)N[C@H]1CC(=O)NCCCC[C@@H](C(=O)N[C@@H](C(=O)N2CCC[C@@H]2C(N)=O)C(C)C)NC(=O)[C@H](Cc2c[nH]c3ccccc23)NC(=O)CNC(=O)[C@@H](Cc2ccc3ccccc3c2)NC(=O)[C@@H]2CCCN2C1=O` displayed an EC50 of more than 1000 nM.
Take `CCCC[C@H](NC(C)=O)C(=O)N[C@H]1CC(=O)NCCCC[C@@H](C(=O)N2CCC[C@@H]2C(=O)N[C@@H](C(=O)N2CCC[C@@H]2C(N)=O)C(C)C)NC(=O)[C@H](Cc2c[nH]c3ccccc23)NC(=O)[C@H](CCCNC(=N)N)NC(=O)[C@@H](Cc2ccc3ccccc3c2)NC(=O)[C@@H]2CCCN2C1=O`: the concentration for a half-maximal effect (EC50) was determined as 130 nM in experiment [1] and 0.21 nM in experiment [2].
In the same order, the values of `CCCC[C@H](NC(C)=O)C(=O)N[C@H]1CC(=O)NCCCC[C@@H](C(=O)N[C@@H](C(=O)N2CCC[C@@H]2C(=O)O)C(C)C)NC(=O)[C@H](Cc2c[nH]c3ccccc23)NC(=O)[C@H](CCCNC(=N)N)NC(=O)[C@@H](Cc2ccc3ccccc3c2)NC(=O)[C@@H]2CCCN2C1=O` are 32 nM and 0.12 nM.
In the case of `CCCC[C@H](NC(C)=O)C(=O)N[C@H]1CC(=O)NCCCC[C@@H](C(=O)N[C@H](CCCCN)C(=O)N2CCC[C@@H]2C(=O)N[C@@H](C(N)=O)C(C)C)NC(=O)[C@H](Cc2c[nH]c3ccccc23)NC(=O)[C@H](CCCNC(=N)N)NC(=O)[C@@H](Cc2ccc3ccccc3c2)NC(=O)[C@@H]2CCCN2C1=O`, in experiment [2], the EC50 was found to be 0.14 nM.
With `CCCC[C@H](NC(C)=O)C(=O)N[C@H]1CC(=O)NCCCC[C@@H](C(=O)N[C@@H](CCCCN)C(=O)N2CCC[C@@H]2C(=O)N[C@@H](C(N)=O)C(C)C)NC(=O)[C@H](Cc2c[nH]c3ccccc23)NC(=O)[C@H](CCCNC(=N)N)NC(=O)[C@@H](Cc2ccc3ccccc3c2)NC(=O)[C@@H]2CCCN2C1=O`, the concentration for a half-maximal effect (EC50) was 1.3 nM in experiment [1] and 0.07 nM in experiment [2].
In the same order, the values of `CCCC[C@H](NC(C)=O)C(=O)N[C@H]1CCC(=O)NCCC[C@@H](C(=O)N[C@@H](C(=O)N2CCC[C@@H]2C(N)=O)C(C)C)NC(=O)[C@H](Cc2c[nH]c3ccccc23)NC(=O)[C@H](CCCNC(=N)N)NC(=O)[C@@H](Cc2ccc3ccccc3c2)NC(=O)[C@@H]2CCCN2C1=O` are 3.3 nM and 0.11 nM.
For the compound `CCCC[C@H](NC(C)=O)C(=O)N[C@H]1CSSC[C@@H](C(=O)N[C@@H](C(=O)N2CCC[C@@H]2C(N)=O)C(C)C)NC(=O)[C@H](Cc2c[nH]c3ccccc23)NC(=O)[C@H](CCCNC(=N)N)NC(=O)[C@@H](Cc2ccc3ccccc3c2)NC(=O)[C@@H]2CCCN2C1=O`, the EC50 in experiment [1] was 13 nM; in experiment [2] it was 1.9 nM.
For `CCCC[C@H](NC(C)=O)C(=O)N[C@H]1CC(=O)NCCCC[C@@H](C(=O)N[C@@H](C(=O)N2CCC[C@@H]2C(N)=O)C(C)C)NC(=O)[C@H](Cc2c[nH]c3ccccc23)NC(=O)[C@@H](Cc2ccc3ccccc3c2)NC(=O)[C@@H]2CCCN2C1=O`, in experiment [2], the EC50 was more than 1000 nM.
For orientation: IC50 means the concentration needed to halve the response being measured. A high value points to weaker potency in that assay. As for `CCCC[C@H](NC(C)=O)C(=O)N[C@H]1CC(=O)NCCCC[C@@H](C(=O)N[C@@H](CCCNC(=N)N)C(N)=O)NC(=O)[C@H](Cc2c[nH]c3ccccc23)NC(=O)[C@H](CCCNC(=N)N)NC(=O)[C@@H](Cc2ccc3ccccc3c2)NC(=O)[C@@H]2CCCN2C1=O`, in experiment [1], the EC50 was found to be 0.33 nM. Moreover, the half-inhibitory concentration (IC50) in experiment [3] came to 0.54 nM; in experiment [4], 11 nM.
In the same order, the values of `CCCC[C@H](NC(C)=O)C(=O)N[C@H]1CC(=O)NCCCC[C@@H](C(=O)N[C@@H](C)C(=O)N[C@@H](C)C(N)=O)NC(=O)[C@H](Cc2c[nH]c3ccccc23)NC(=O)[C@H](CCCNC(=N)N)NC(=O)[C@@H](Cc2ccc3ccccc3c2)NC(=O)[C@@H]2CCCN2C1=O` are 3.3 nM, 2.15 nM and 58 nM.
For `CCCC[C@H](NC(C)=O)C(=O)N[C@H]1CC(=O)NCCCC[C@@H](C(=O)N[C@H](CC(=O)O)C(N)=O)NC(=O)[C@H](Cc2c[nH]c3ccccc23)NC(=O)[C@H](CCCNC(=N)N)NC(=O)[C@@H](Cc2ccc3ccccc3c2)NC(=O)[C@@H]2CCCN2C1=O`, the EC50 in experiment [1] was 82 nM. Also, the results for the IC50 in experiment [3] and in experiment [4] were 25 nM and 240 nM, respectively.
Turning to `CCCC[C@H](NC(C)=O)C(=O)N[C@H]1CC(=O)NCCCC[C@@H](C(=O)N[C@H](CCCNC(=N)N)C(=O)N[C@@H](C(=O)N2CCC[C@@H]2C(N)=O)C(C)C)NC(=O)[C@H](Cc2c[nH]c3ccccc23)NC(=O)[C@H](CCCNC(=N)N)NC(=O)[C@@H](Cc2ccc3ccccc3c2)NC(=O)[C@@H]2CCCN2C1=O`, in experiment [1], the EC50 amounted to 7 nM. Besides, the 50% inhibitory concentration (IC50) in experiment [3] stood at 2.06 nM; in experiment [4] it was 13 nM.
`CCC[C@H](NC(C)=O)C(=O)N[C@H]1CC(=O)NCCCC[C@@H](C(=O)N[C@@H](C(=O)N2CCC[C@@H]2C(N)=O)C(C)C)NC(=O)[C@H](Cc2c[nH]c3ccccc23)NC(=O)[C@H](CCCNC(=N)N)NC(=O)[C@@H](Cc2ccc3ccccc3c2)NC(=O)[C@@H]2CCCN2C1=O` returned a concentration giving a half-maximal response (EC50) in experiment [1] of 100 nM. In addition, the IC50 in experiment [3] was 2.44 nM; in experiment [4], 130 nM.
In the same order, the values of `CCCC[C@H](NC(C)=O)C(=O)N[C@H]1CC(=O)NCCCC[C@@H](C(=O)N[C@@H](C(=O)N[C@@H](CCCNC(=N)N)C(N)=O)C(C)C)NC(=O)[C@H](Cc2c[nH]c3ccccc23)NC(=O)[C@H](CCCNC(=N)N)NC(=O)[C@@H](Cc2ccc3ccccc3c2)NC(=O)[C@@H]2CCCN2C1=O` are 1.1 nM, 0.9 nM and 16 nM.
Compound `CCCC[C@H](NC(C)=O)C(=O)N[C@H]1CC(=O)NCCCC[C@@H](C(=O)N[C@@H](C(=O)N[C@@H](C(N)=O)C(C)C)C(C)C)NC(=O)[C@H](Cc2c[nH]c3ccccc23)NC(=O)[C@H](CCCNC(=N)N)NC(=O)[C@@H](Cc2ccc3ccccc3c2)NC(=O)[C@@H]2CCCN2C1=O` displayed an EC50 in experiment [1] of 70 nM. Further, the IC50 in experiment [3] is 3.72 nM; in experiment [4], 21 nM.
